Results reported in US8765384B2.

Sequences of proteins named here, by UniProt entry; tags and fusion partners are left off. Residues count along the entry.
UniProt P02870, 31-210 limits assumed: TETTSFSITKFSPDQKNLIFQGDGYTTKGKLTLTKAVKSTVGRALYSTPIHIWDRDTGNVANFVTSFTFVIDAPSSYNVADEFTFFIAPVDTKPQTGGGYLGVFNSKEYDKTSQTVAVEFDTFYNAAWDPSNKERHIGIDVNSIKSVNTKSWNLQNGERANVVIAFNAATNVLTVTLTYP
UniProt P02870, 218-269 limits assumed: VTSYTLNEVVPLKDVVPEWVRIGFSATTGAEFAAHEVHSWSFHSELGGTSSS

Target: LCA (lectin protein) (Lens culinaris, UniProt P02870)
Test: SPR measurement of bonding of LCA to sensor chip with immobilized ligand conjugate

O=C(CCCCC1CCSS1)NCC(=O)NC(CCC(=O)Nc1cccc(NC[C@H](O)[C@@H](O)[C@H](O[C@H]2O[C@H](CO)[C@@H](O)[C@H](O)[C@H]2O)[C@H](O)CO)c1)(CCC(=O)Nc1cccc(NC[C@H](O)[C@@H](O)[C@H](O[C@H]2O[C@H](CO)[C@@H](O)[C@H](O)[C@H]2O)[C@H](O)CO)c1)CCC(=O)Nc1cccc(NC[C@H](O)[C@@H](O)[C@H](O[C@H]2O[C@H](CO)[C@@H](O)[C@H](O)[C@H]2O)[C@H](O)CO)c1 (stereo partly drawn)
Ka: Assosication Rate Constant (ligand conjugate immobilized on gold chip, protein in PBS buffer): 2.40 M^−1s^−1 × 10^4
Kd (read-out: KD: Dissociation Constant, ligand conjugate immobilized on gold chip, protein in PBS buffer): 6.04 µM
bonding behavior (result in words): could bond
